Experiment [1] deals with MDA-MB-231. The experiment is described as follows: drug sensitivity score (DSS), cell viability CellTiter-Glo; higher = more sensitive; extreme values may be limits of the assay. The settings on record: 72 h. Background: In ATP-based viability assays light output follows the ATP content of the culture.
In experiment [2] the test system is MDA-MB-231. Briefly: drug sensitivity score (DSS), cytotoxicity CellTox Green; higher = more cytotoxic; extreme values may be limits of the assay. The note with it: 72 h.
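Wherever drug sensitivity score (DSS), cytotoxicity CellTox Green is given: DSS summarises each dose–response curve by combining IC50, EC50, maximal inhibition and efficacy across drug concentrations.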

As for `NCc1ccc(OCCCc2sc(-c3ccc4c(c3)/C(=N/Nc3nc5ccccc5s3)CCC4)nc2C(=O)O)cc1` [WEHI-539], the drug sensitivity score in the experiment on MDA-MB-231 [1] (shRNA: shPPFIA1_1) worked out at 1.6 DSS; in the experiment with MDA-MB-231 [1] (shRNA: shScramble) it was 1 DSS; with MDA-MB-231 [2] (shRNA: shPPFIA1_1), 5.6 DSS; in the experiment with MDA-MB-231 [2] (shRNA: shScramble) it was 2.5 DSS.

For the origin of these results see the supplement of paper PMC10920090.
